Protein sequences, listed by entry. Tags and fused reporters are not part of them. Residues count along the entry.
UniProt Q5S007, 970-2527 G2019S: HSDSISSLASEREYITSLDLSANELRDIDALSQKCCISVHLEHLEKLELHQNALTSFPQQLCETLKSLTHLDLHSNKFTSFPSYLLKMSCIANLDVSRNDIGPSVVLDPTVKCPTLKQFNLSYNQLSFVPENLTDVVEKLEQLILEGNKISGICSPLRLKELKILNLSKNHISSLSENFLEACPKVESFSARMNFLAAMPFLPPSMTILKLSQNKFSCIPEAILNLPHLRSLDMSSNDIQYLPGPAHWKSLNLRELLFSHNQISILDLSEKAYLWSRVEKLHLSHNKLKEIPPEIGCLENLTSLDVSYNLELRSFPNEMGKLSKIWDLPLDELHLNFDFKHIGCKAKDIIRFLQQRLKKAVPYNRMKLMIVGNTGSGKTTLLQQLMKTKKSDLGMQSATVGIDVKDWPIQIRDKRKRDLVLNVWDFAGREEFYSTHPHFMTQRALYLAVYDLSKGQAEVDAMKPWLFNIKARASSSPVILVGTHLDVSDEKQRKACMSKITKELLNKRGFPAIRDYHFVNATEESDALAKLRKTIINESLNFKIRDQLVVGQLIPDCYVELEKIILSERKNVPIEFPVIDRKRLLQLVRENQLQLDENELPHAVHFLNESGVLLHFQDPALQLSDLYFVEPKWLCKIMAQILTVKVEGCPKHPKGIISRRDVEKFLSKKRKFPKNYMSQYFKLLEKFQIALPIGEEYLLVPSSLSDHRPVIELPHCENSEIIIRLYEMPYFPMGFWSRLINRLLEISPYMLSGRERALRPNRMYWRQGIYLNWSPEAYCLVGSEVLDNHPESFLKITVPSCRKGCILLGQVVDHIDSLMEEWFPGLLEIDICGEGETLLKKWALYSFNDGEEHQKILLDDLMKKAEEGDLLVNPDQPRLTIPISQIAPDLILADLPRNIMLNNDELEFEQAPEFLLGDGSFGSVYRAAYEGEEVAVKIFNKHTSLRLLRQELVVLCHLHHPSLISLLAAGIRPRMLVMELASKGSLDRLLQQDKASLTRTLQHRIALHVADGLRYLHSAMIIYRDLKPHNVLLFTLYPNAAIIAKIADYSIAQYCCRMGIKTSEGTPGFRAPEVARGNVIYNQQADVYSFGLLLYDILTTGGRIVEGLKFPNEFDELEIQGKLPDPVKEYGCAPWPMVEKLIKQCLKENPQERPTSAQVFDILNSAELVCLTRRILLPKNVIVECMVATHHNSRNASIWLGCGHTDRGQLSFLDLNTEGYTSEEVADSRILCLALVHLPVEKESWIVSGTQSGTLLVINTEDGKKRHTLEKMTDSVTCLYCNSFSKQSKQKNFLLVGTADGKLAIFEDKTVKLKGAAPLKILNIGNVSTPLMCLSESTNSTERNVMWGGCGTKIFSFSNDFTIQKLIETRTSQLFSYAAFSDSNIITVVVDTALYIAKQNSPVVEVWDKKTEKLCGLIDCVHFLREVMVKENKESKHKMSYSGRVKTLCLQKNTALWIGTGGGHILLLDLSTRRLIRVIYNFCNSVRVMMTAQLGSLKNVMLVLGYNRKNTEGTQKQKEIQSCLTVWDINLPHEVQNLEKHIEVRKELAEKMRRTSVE

According to patent publication US12030872B2, “N-heteroaryl indazole derivatives as LRRK2 inhibitors, pharmaceutical compositions, and uses thereof” (Merck Sharp & Dohme LLC, priority 2018, dated 2024):

Molecular target: GST-tagged truncated human mutant G2019S LRRK2 (Homo sapiens (Human), UniProt Q5S007, G2019S)
Assay: LRRK2 G2019S Km ATP LanthaScreen Assay
Conditions: LRRKtide substrate, mean IC50 values
[1] = read-out: LRRK2 IC50, G2019S LRRK2, 134 μM ATP (Km ATP)
[2] = LRRK2 IC50, G2019S LRRK2, 134 μM ATP (Km ATP)

pIC50 [2] | SMILES | pIC50 [1]
8.16 | Cn1cc(-n2ncc3cc(Cl)c(C4CCNCC4)cc32)cn1 [Example 16.1, 5-chloro-1-(1-methyl-1H-pyrazol-4-yl)-6-(piperidin-4-yl)-1H-indazole] | –
8.85 | Clc1cc2cnn(-c3cn[nH]c3)c2cc1C1CCN(C2COC2)CC1 [Example 4.1, 5-chloro-6-(1-(oxetan-3-yl)piperidin-4-yl)-1-(1H-pyrazol-4-yl)-1H-indazole] | –
> 9.20 | CC1(N2CCC(c3cc4c(cnn4-c4cnn(-c5ncccn5)c4)cc3Cl)CC2)COC1 [Example 10.1, 5-chloro-6-(1-(3-methyloxetan-3-yl)piperidin-4-yl)-1-(1-(pyrimidin-2-yl)-1H-pyrazol-4-yl)-1H-indazole] | –
7.45 | Cn1cc(-n2ncc3cc(Cl)c(C4CC45CC5)cc32)cn1 (racemic) [Example 34.2, (R and S)-5-chloro-1-(1-methyl-1H-pyrazol-4-yl)-6-(spiro[2.2]pentan-1-yl)-1H-indazole] | –
8.01 | CN1CCC(c2cc3c(cnn3-c3cnn(C)c3)cc2Cl)CC1CO (stereo not drawn) [Example 25.5, (4-(5-chloro-1-(1-methyl-1H-pyrazol-4-yl)-1H-indazol-6-yl)-1-methylpiperidin-2-yl)methanol] | –
5.63 | Cn1cc(-n2ncc3cc(Cl)c(C4CN(C5COC5)C4)cc32)cn1 [Example 31.3, 5-chloro-1-(1-methyl-1H-pyrazol-4-yl)-6-(1-(oxetan-3-yl)azetidin-3-yl)-1H-indazole] | –
8.47 | CC1(N2CCC(c3cc4c(cnn4-c4cnn(CC(F)F)c4)cc3Cl)CC2)COC1 [Example 11.1, 5-chloro-1-(1-(2,2-difluoroethyl)-1H-pyrazol-4-yl)-6-(1-(3-methyloxetan-3-yl)piperidin-4-yl)-1H-indazole] | –
8.57 | CCC1(N2CCC(c3cc4c(cnn4-c4cnn(C5CC5)c4)cc3Cl)CC2)COC1 [Example 13.2, 5-chloro-1-(1-cyclopropyl-1H-pyrazol-4-yl)-6-(1-(3-ethyloxetan-3-yl)piperidin-4-yl)-1H-indazole] | –
6.73 | Cn1cc(-n2ncc3cc(Cl)c(C4CC5(C4)CN(C4COC4)C5)cc32)cn1 [Example 28.4, 5-chloro-1-(1-methyl-1H-pyrazol-4-yl)-6-(2-(oxetan-3-yl)-2-azaspiro[3.3]heptan-6-yl)-1H-indazole] | –
8.34 | CCNC(=O)n1cc(-n2ncc3cc(Cl)c(C4CCN(C5(C)COC5)CC4)cc32)cn1 [Example 8.2, 4-(5-chloro-6-(1-(3-methyloxetan-3-yl)piperidin-4-yl)-1H-indazol-1-yl)-N-ethyl-1H-pyrazole-1-carboxamide] | –
8.37 | Clc1cc2cnn(-c3cn(C4CC4)nn3)c2cc1C1CCN(C2COC2)CC1 [Example 3.2, 5-chloro-1-(1-cyclopropyl-1H-1,2,3-triazol-4-yl)-6-(1-(oxetan-3-yl)piperidin-4-yl)-1H-indazole] | –
9.05 | CNC(=O)n1cc(-n2ncc3cc(Cl)c(C4CCN(C5COC5)CC4)cc32)cn1 [Example 5.1, 4-(5-chloro-6-(1-(oxetan-3-yl)piperidin-4-yl)-1H-indazol-1-yl)-N-methyl-1H-pyrazole-1-carboxamide] | –
> 9.20 | Clc1cc2cnn(-c3cnn(-c4ncccn4)c3)c2cc1C1CCN(C2COC2)CC1 [Example 4.2, 5-chloro-6-(1-(oxetan-3-yl)piperidin-4-yl)-1-(1-(pyrimidin-2-yl)-1H-pyrazol-4-yl)-1H-indazole] | –

The next lines start with the molecule.

SMILES | pIC50 [2] | pIC50 [1]
O[C@H]1COCC1N1CCC(c2cc3c(cnn3-c3cnn(C45CC(C4)C5)c3)cc2Cl)CC1 (single isomer, unassigned) [Example 42.3, (R,R or S,S)-4-(4-(1-(1-(bicyclo[1.1.1]pentan-1-yl)-1H-pyrazol-4-yl)-5-chloro-1H-indazol-6-yl)piperidin-1-yl)tetrahydrofuran-3-ol] | – | > 9.20
Cn1cc(-n2ncc3cc(Cl)c(C4C5COCC54)cc32)cn1 (stereo not drawn) [Example 32.1, (cis or trans)-6-(3-oxabicyclo[3.1.0]hexan-6-yl)-5-chloro-1-(1-methyl-1H-pyrazol-4-yl)-1H-indazole] | – | 7.16
Cc1cc2cnn(-c3cnn(C)c3)c2cc1[C@@H]1CCN(C2(C)COC2)C[C@@H]1C (mixture of isomers) [Example 24.6, (R,R and S,S)-5-methyl-6-(3-methyl-1-(3-methyloxetan-3-yl)piperidin-4-yl)-1-(1-methyl-1H-pyrazol-4-yl)-1H-indazole] | – | 9.05
Clc1cc2cnn(-c3cnn(C4COC4)c3)c2cc1C1CCN(C2COC2)CC1 [Example 2.3] | – | 8.28
Cc1cnc(-n2ncc3cc(Cl)c(C4CCN(C5COC5)CC4)cc32)s1 [Example 2.9] | – | 7.80
COCC12CC(n3cc(-n4ncc5cc(Cl)c(C6CCN(C7(C)COC7)CC6)cc54)cn3)(C1)C2 [Example 7.2-5, 5-chloro-1-(1-(3-(methoxymethyl)bicyclo[1.1.1]pentan-1-yl)-1H-pyrazol-4-yl)-6-(1-(3-methyloxetan-3-yl)piperidin-4-yl)-1H-indazole] | > 9.20 | –
Cn1cc(-n2ncc3cc(Cl)c(C4CCCN(C5COC5)CC4)cc32)cn1 (single isomer, unassigned) [Example 29.3-2, (R or S)-5-chloro-1-(1-methyl-1H-pyrazol-4-yl)-6-(1-(oxetan-3-yl)azepan-4-yl)-1H-indazole] | 8.77 | –
Cn1cc(-n2ncc3cc(Cl)c(C4CCN(C5COC5)C4)cc32)cn1 (single isomer, unassigned) [Example 30.5-2, (R or S)-5-chloro-1-(1-methyl-1H-pyrazol-4-yl)-6-(1-(oxetan-3-yl)pyrrolidin-3-yl)-1H-indazole] | 6.69 | –
CC1(N2CCC(c3cc4c(cnn4-c4cnn(C5CC5)c4)cc3Cl)CC2)CCOC1 (single isomer, unassigned) [Example 15.3-1, (R or S)-5-chloro-1-(1-cyclopropyl-1H-pyrazol-4-yl)-6-(1-(3-methyltetrahydrofuran-3-yl)piperidin-4-yl)-1H-indazole] | > 9.20 | –
CN1CCC(c2cc3c(cnn3-c3cnn(C)c3)cc2Cl)C(F)C1 (single isomer, unassigned) [Example 19.7-1, (R,R or S,S)-5-chloro-6-(3-fluoro-1-methylpiperidin-4-yl)-1-(1-methyl-1H-pyrazol-4-yl)-1H-indazole] | – | 8.41
N#CC1(c2ccc3cnn(-c4cn(-c5ccccc5)cn4)c3c2)CC12CC2 (stereo not drawn) [Example 1.4] | – | 7.89
Cn1cc(-n2ncc3cc(Cl)c(C4CCN(C5CCOC5)CC4)cc32)cn1 (single isomer, unassigned) [Example 14.2-1, (R or S)-5-chloro-1-(1-methyl-1H-pyrazol-4-yl)-6-(1-(tetrahydrofuran-3-yl)piperidin-4-yl)-1H-indazole] | 8.92 | –
C[C@H]1CN(C2(C)COC2)CCC1c1cc2c(cnn2-c2cnn(C)c2)cc1Cl (single isomer, unassigned) [Example 27.5-2, (R,S or S,R)-5-chloro-6-(3-methyl-1-(3-methyloxetan-3-yl)piperidin-4-yl)-1-(1-methyl-1H-pyrazol-4-yl)-1H-indazole] | – | 7.90
Clc1cc2cnn(-c3cnn(C4CC4)c3)c2cc1C1CCN(C2COC2)CC1 [Example 2.2, 5-chloro-1-(1-cyclopropyl-1H-pyrazol-4-yl)-6-(1-(oxetan-3-yl)piperidin-4-yl)-1H-indazole] | > 9.20 | –
Cc1cc2cnn(-c3cnn(C)c3)c2cc1C1CCN(C2COC2)C[C@H]1F (single isomer, unassigned) [Example 22.1-1, (R,R or S,S)-6-(3-fluoro-1-(oxetan-3-yl)piperidin-4-yl)-5-methyl-1-(1-methyl-1H-pyrazol-4-yl)-1H-indazole] | – | 8.08
Cn1cc(-n2ncc3cc(Cl)c(C4CCCN(C5COC5)CC4)cc32)cn1 (single isomer, unassigned) [Example 29.3-1, (R or S)-5-chloro-1-(1-methyl-1H-pyrazol-4-yl)-6-(1-(oxetan-3-yl)azepan-4-yl)-1H-indazole] | 9.15 | –
Cc1cnc(-n2ncc3cc(Cl)c(C4CCN(C5COC5)CC4)cc32)o1 [Example 2.6] | – | 8.43
C[C@@H]1CN(C2COC2)CCC1c1ccc2cnn(-c3cnn(C)c3)c2c1 (single isomer, unassigned) [Example 26.7-2, (R,R or S,S)-6-(3-methyl-1-(oxetan-3-yl)piperidin-4-yl)-1-(1-methyl-1H-pyrazol-4-yl)-1H-indazole] | – | 7.44
C[C@H]1CN(C2(C)COC2)CCC1c1cc2c(cnn2-c2cnn(C)c2)cc1Cl (single isomer, unassigned) [Example 27.5-1, (R,S or S,R)-5-chloro-6-(3-methyl-1-(3-methyloxetan-3-yl)piperidin-4-yl)-1-(1-methyl-1H-pyrazol-4-yl)-1H-indazole] | – | 8.00
FC(F)(F)n1cc(-n2ncc3cc(Cl)c(C4CCN(C5COC5)CC4)cc32)cn1 [Example 2.5] | – | 7.98
Cn1cc(-n2ncc3cc(Cl)c(C4CCN(C5(C)CCOC5)CC4)cc32)cn1 (single isomer, unassigned) [Example 15.4-2] | – | 8.46
O=C1CCCN1c1nc(-n2ncc3cc(Cl)c(C4CCN(C5COC5)CC4)cc32)cs1 [Example 2.10] | – | 8.59
C[C@@]1(N2CCC(c3cc4c(cnn4-c4cnn(C56CC(C5)C6)c4)cc3Cl)CC2)COC[C@@H]1O (single isomer, unassigned) [Example 40.4-1, (R,R or S,S)-4-(4-(1-(1-(bicyclo[1.1.1]pentan-1-yl)-1H-pyrazol-4-yl)-5-chloro-1H-indazol-6-yl)piperidin-1-yl)-4-methyltetrahydrofuran-3-ol] | – | > 9.20
Cc1cc(-n2ncc3ccc(C4(C#N)CC45CC5)cc32)sn1 (stereo not drawn) [Example 1.7] | – | 7.91
CC1(N2CCC(c3cc4c(cnn4-c4cnn(CCF)c4)cc3Cl)CC2)COC1 [Example 11.2] | – | 9.05
Cc1cnc(-n2ncc3cc(Cl)c(C4CCN(C5(C)COC5)CC4)cc32)o1 [Example 7.6] | – | 8.24

pIC50: −log10 of the molar value. Where two headings read alike, the source gives them in different places.
